Measurements reported in patent publication US20240002326A1, “COMPOUNDS AND USE THEREOF IN METHODS OF TREATMENT” (The University of Queensland, priority 2016, published 2024).

Protein sequences, listed by entry. Tags and fused reporters are not part of them. Residues count along the entry.
UniProt Q04887, 105-173 limits assumed: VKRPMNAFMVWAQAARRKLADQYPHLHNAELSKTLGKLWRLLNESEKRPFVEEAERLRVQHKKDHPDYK
UniProt P35713, whole entry: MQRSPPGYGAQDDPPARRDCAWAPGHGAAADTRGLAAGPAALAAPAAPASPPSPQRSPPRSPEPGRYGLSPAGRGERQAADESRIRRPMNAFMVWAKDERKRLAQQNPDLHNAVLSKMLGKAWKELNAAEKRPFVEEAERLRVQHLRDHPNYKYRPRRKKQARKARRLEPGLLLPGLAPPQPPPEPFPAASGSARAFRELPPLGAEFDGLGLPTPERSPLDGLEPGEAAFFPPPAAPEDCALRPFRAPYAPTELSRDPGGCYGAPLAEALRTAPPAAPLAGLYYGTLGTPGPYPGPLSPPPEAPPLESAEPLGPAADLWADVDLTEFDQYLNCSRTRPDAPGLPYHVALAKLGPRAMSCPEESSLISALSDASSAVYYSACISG
UniProt P43267, 47-115 limits assumed: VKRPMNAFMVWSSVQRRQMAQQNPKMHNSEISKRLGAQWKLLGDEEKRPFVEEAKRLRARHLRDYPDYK

Tests used:
Sox9 = test: Zebrafish tg(col2a1:yfp) Sox9 reporter; settings: continuous treatment between 2 and 6 days post fertilization
SOX9 HMG fragment = SOX9 HMG fragment (Mus musculus (Mouse), UniProt Q04887); test: FP DNA-binding competition assay, SOX9 HMG fragment; settings: read-out: DNA-binding inhibition IC50, SOX9 HMG; HMG only fragment
Experimental: (§1) Mouse SOX HMG fragments. The HMG domains of mouse SOX2 (Group B), SOX11 (Group C), SOX6 (Group D), SOX9 (Group E), SOX18 (Group F) and SOX15 (Group G) were BP cloned from cDNA templates (IMAGE cDNA clone IDs: Sox18: 3967084; Sox9: 5354229; Sox4: 6822618) into a pDONRTM221 pENTRY vector, sequenced and recombined into a pETG20A or a pHisMBP expression plasmid using Gateway®LR Technology (Ng et al., 2012). Constructs were transformed into Escherichia coli BL21(DE3) cells (Luria-Bertani, 100 μg/ml Ampicillin).
(§2) The DNA-binding competition assay was performed in black 384-well plates, with mouse full length SOX18, or SOX-HMG fragments. All experiments were performed using a fluorescently-labelled Prox1-DNA element. […]
(§3) The DNA-binding competition assay was performed in 25 uL, in black 384-well plates, using either 30 mM HEPES (N-2-Hydroxyethylpiperazine-N′-2-Ethanesulfonic Acid) (pH 7.5, with 100 mM KCl, 40 mM NaCl, 10 mM NH4OAc, […], 2 mM MgCl2, 0.5 mM EDTA, 0.01% NP-40) for mouse full length SOX18, or Tris-NaCl (10 mM Tris pH 8.0 and 100 mM NaCl) for SOX-HMG fragments. […] After mixing protein, DNA probe and compound, plates were sealed and briskly agitated in the dark for 5 minutes at room temperature, 10 minutes at 37° C., and 30 minutes at room temperature, before reading fluorescence polarization on a Tecan M1000Pro (λexc=485 nm, λem=525 nm). […]

SOX18-RBPJ interaction = SOX18-RBPJ interaction (Homo sapiens (Human), UniProt P35713); test: ALPHAScreen SOX18-RBPJ protein-protein interaction
Calcium Channel L-Type = test: Off-target radioligand binding, Calcium Channel L-Type; settings: Rat
SOX15 HMG fragment = SOX15 HMG fragment (Mus musculus (Mouse), UniProt P43267); test: FP DNA-binding competition assay, SOX15 HMG fragment; settings: read-out: DNA-binding inhibition IC50, SOX15 HMG; HMG only fragment
Experimental: as §1, §2, §3

GABAA, Muscimol = test: Off-target radioligand binding, GABAA Muscimol; settings: Rat
Glutamate, NMDA = test: Off-target radioligand binding, Glutamate NMDA; settings: Rat
[1] = tested on: 4T1.2 mammary carcinoma cells; test: 4T1.2 mammary carcinoma mouse model of breast cancer metastasis; assay type: in vivo, BALB/c mice

O=C(O)c1c(O)cccc1CCc1ccc2ccccc2c1
transcriptional activity of Sox9 / chondrogenesis in vivo (Sox9): did not perturb | pIC50 (SOX9 HMG fragment): 3.51 to 3.57 | SOX18-RBPJ protein-protein binding inhibition at 5 μM (SOX18-RBPJ interaction; 5 μM): marginal | SOX18-RBPJ protein-protein binding inhibition at 50 μM (SOX18-RBPJ interaction; 50 μM, printed for almost complete inhibition (remaining interaction)): 11.9±5.6% | effect on SOX18-RBPJ interaction (PPI) (SOX18-RBPJ interaction; ALPHAScreen): inhibit both DNA and PPI | pIC50 (SOX18-RBPJ interaction; read-out: SOX18-RBPJ interaction disruption IC50, ALPHAScreen): 4.37 | Inhibition at 10 μM (%) (Calcium Channel L-Type): −8% | pIC50 (SOX15 HMG fragment): 3.66 to 3.70 | Inhibition at 10 μM (%) (GABAA, Muscimol): 6% | Inhibition at 10 μM (%) (Glutamate, NMDA): −5% | decrease in the number of endothelial cells (ERG) in tumors ([1]; 25 mg/kg/day): 48% | decrease in the volume of the blood vessels (EMCN) in tumors ([1]; 25 mg/kg/day): 55% | reduction of density of tumor associated lymphatic vessels (PDPN) ([1]; 25 mg/kg/day): 65% | reduction of number of lymphatic endothelial cells (PROX1) ([1]; 25 mg/kg/day): 70% | size of the primary tumor ([1]; 25 mg/kg/day): unchanged | median latency (survival) ([1]; 25 mg/kg/day oral, day 3 to day 12): 44 days | median latency (survival), dose response ([1]; 50 mg/kg Sm4, vehicle 40 days): 73 days | reduction in the mean number of lung metastases ([1]; day 28 after tumor inoculation, 25 mg/kg/day): 67%

pIC50: −log10 of the molar value.
